Experimental data: patent US11420970B1 (NOVARTIS AG, priority 2019, dated 2022)

Chains of the proteins cited; added tags and fusions are not shown.
UniProt O96028, whole entry: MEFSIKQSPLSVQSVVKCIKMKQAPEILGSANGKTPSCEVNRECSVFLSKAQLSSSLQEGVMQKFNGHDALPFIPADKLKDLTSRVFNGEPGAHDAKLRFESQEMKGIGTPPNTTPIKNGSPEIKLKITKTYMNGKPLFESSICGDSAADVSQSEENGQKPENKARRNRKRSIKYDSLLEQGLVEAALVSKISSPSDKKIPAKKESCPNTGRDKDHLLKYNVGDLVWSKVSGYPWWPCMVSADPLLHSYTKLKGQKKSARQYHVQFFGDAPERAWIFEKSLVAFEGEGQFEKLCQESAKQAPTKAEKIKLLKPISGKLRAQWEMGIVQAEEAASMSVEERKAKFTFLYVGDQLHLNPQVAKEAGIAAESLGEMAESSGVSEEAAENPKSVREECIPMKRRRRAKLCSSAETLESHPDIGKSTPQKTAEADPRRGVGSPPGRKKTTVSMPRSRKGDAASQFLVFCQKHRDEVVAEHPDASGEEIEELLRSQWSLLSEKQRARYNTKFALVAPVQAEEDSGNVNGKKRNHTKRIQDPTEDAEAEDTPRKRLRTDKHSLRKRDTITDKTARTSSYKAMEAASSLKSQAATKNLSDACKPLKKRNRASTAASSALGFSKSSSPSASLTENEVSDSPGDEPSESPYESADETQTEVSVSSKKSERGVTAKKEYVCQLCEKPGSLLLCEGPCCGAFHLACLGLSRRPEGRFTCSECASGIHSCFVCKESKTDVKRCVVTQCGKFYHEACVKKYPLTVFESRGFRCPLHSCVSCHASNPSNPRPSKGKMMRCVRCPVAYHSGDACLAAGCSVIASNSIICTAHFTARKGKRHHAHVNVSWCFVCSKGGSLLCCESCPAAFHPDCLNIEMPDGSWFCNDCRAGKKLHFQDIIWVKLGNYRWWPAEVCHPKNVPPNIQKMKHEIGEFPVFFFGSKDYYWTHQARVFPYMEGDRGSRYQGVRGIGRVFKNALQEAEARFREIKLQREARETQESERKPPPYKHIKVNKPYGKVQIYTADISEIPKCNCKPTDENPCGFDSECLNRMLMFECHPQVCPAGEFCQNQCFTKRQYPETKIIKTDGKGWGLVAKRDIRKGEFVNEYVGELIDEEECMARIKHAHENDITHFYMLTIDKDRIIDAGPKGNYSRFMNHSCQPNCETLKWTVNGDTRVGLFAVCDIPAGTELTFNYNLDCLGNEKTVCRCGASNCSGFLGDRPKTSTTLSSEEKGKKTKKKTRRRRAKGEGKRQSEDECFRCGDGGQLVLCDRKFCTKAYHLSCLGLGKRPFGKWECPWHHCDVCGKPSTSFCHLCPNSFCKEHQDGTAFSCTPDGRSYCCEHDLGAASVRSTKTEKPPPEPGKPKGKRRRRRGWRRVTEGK

Key:
[1] = molecular target: NSD2 [1-1365] (Homo sapiens (Human), UniProt O96028); experiment: LC-MS/MS-based NSD2 enzymatic assay (SAH production); details: read-out: NSD2 IC50
[2] = test system: cellular H3K36me2 level in multiple myeloma cell line KMS11 (t(4;14)+); experiment: H3K36me2 cellular FRET assay in KMS11-Par line; assay type: cell-based; details: read-out: H3K36me2 FRET in KMS11-Par
[3] = test system: cellular H3K36me2 level in multiple myeloma cell line KMS11 (t(4;14)+); experiment: H3K36me2 cellular ELISA assay in KMS11-Par line; assay type: cell-based; details: read-out: H3K36me2 ELISA in KMS11-Par, 72 hours

SMILES: Nc1ncnc2c1ncn2Cc1cc(-c2ccc(F)c(F)c2)ncc1N1CCC[C@](N)(Cn2cccn2)C1
- IC50 [1]: 10 to 1000 nM
- IC50 [2]: 336 nM
- IC50 [3]: 1410 nM
